Reference: patent US20240150300A1, “S-CONFIGURATION-CONTAINING AMINO BENZAMIDE PYRIDAZINONE COMPOUND, PREPARATION METHOD THEREFOR, AND PHARMACEUTICAL COMPOSITION AND APPLICATION THEREOF” (SHANGHAI INSTITUTE OF MATERIA MEDICA, CHINESE ACADEMY OF …, priority 2021, published 2024)

Tests used:
HCT-116 cells = experiment: Antiproliferative activity, CCK-8, HCT-116; settings: read-out: HCT-116 IC50, 72 h
SKM-1 cells = experiment: Antiproliferative activity, CCK-8, SKM-1; settings: read-out: SKM-1 IC50, 72 h

| IC50 (HCT-116 cells) [nM] | IC50 (SKM-1 cells) [nM] | SMILES |
| --- | --- | --- |
| 340 | 240 | COc1cccc(-c2ccc(=O)n(C(C)c3ccc(C(=O)Nc4ccccc4N)cc3)n2)c1 (racemic) |
| 1160 | – | C[C@H](c1ccc(C(=O)Nc2ccccc2N)cc1)n1nc(-c2ccccc2)ccc1=O |
| 650 | 490 | CC(c1ccc(C(=O)Nc2ccccc2N)cc1)n1nc(-c2cccc(Cl)c2)ccc1=O (racemic) |
| 300 | 290 | C[C@H](c1ccc(C(=O)Nc2ccccc2N)cc1)n1nc(-c2ccc(CN(C)C)cc2)ccc1=O |
